Sampled rows, rich in hits. Any-hit rate of the full collection: about 16%.
DT40 TDP1 no CPT – qHTS for Inhibitors of human tyrosyl-DNA phosphodiesterase 1 (TDP1): qHTS in cells in absence of CPT; DT40 Tdp1-/- hTDP1 cells, no CPT, ATP luminescence, 48 h; Potency, µM (top dose mostly 46.2 µM), without a hit: at the top dose activity change, negative = growth inhibition, hits mostly inhibitors; hit rate 15% among 420,000; further: potency means the concentration at half of the fitted maximal effect; on the % scale 0 is the no-effect control and ±100 the full control effect; nearly all actives have a fitted effect of over 55% in size
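No-CPT arm: Tdp1-/-;hTDP1 DT40 cells (400/well) plus compounds, incubated ≥48 hr at 37 °C. Readout CellTiter-Glo luminescence.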
TDP1 cell CPT – DT40-hTDP1 cell growth loss with CPT; chicken DT40 Tdp1-/-;hTDP1 cells + 20 nM CPT, ATP luminescence, 48 h; Potency, µM (doses to about 46.2 µM), without a hit: top-dose activity change, negative = growth inhibition, most hits filed as inhibitors; hit rate 12% among 420,000; further: potency means the concentration at half of the fitted maximal effect; on the % scale 0 is the no-effect control and ±100 the full control effect; nearly all actives have a fitted effect of over 55% in size
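Cell growth measured by CellTiter-Glo luminescence after a minimum 48 h, 37 C compound exposure with 20 nM CPT in Tdp1-knockout DT40 cells stably expressing hTDP1, seeded 400/well; qHTS titration format.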
uPA generation – inhibitors of cell surface uPA generation; Potency, µM (titrated, usually from 38.3 µM), for inactives: at the top dose activity change, negative = inhibition, actives largely listed as inhibitors; hit rate 0.31% among 330,000; cell surface uPA generation assay, qHTS; active means well fitted inhibition curve with a large enough effect; inconclusive means small, poorly fitted or top-dose-only effect; inactive means no such curve, though single readings can be large or run the other way; tested in mouse RAW 264.7 cells; further: potency means the concentration at half of the fitted maximal effect; on the % scale 0 is the no-effect control and ±100 the full control effect; nearly all actives have a fitted effect of over 55% in size
TDP1 inh – blocks human tyrosyl-DNA phosphodiesterase 1 | Q9NUW8 | recombinant TDP1, AlphaScreen DNA substrate cleavage | Potency, µM (series often up to 130 µM), for the others: top-dose activity change, negative = inhibition, usual class: inhibitors | hit rate 0.28% among 350,000 | AID 485290; further: potency means the concentration at half of the fitted maximal effect; on the % scale 0 is the no-effect control and ±100 the full control effect; nearly all actives have a fitted effect of over 40% in size
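Signal: AlphaScreen proximity between streptavidin donor and anti-FITC acceptor beads on intact substrate. Reaction: Tdp1 1 nM, substrate 15 nM final, 5 min RT after 15 min compound preincubation.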
miR-21 reporter – miR-21 reporter, rising signal; Potency, µM (doses to about 38.3 µM), without a hit: at the top dose reporter change, positive = more light; HeLa miR-21 FLuc reporter, luciferase, 48 h; 340,000 tested, under 10 active; active = well fitted rising curve with a large enough effect; inconclusive = small, poorly fitted or top-dose-only effect; inactive = no such curve, though single readings can be large or run the other way;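 further: % of control where 0% means no effect; miR-21 action dims this reporter so a rising signal means less miR-21 action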
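HeLa miR-21-FLuc reporter line, endogenous miR-21; 2000 cells/well in DMEM/10% FBS; compound titration up to ~40uM final, 48 h, 37 degree Celsius; luciferase detection reagent, 15 min lysis, CCD luminescence.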
An asterisk follows results filed as active. Unless noted, the call rests on the fitted dose curve; in most records, active means well fitted curve in the direction sought with a large enough effect; inconclusive means small, poorly fitted or top-dose-only effect, or another doubt; inactive means no such curve, though single readings can be large; an effect the other way counts as inactive or inconclusive.

CC(C)C[C@@H](CN1CCCC1CN1C(=S)NC[C@@H]1Cc1ccc(O)cc1)N1C[C@H](Cc2ccc(O)cc2)N(CCc2ccccc2)C1=S (some centres not stated) was read as DT40 TDP1 no CPT 7.3µM*, TDP1 cell CPT 13µM* and uPA generation -25%.
Oc1ccc(C[C@H]2CNC(=S)N2C[C@H]2CCCN2C[C@H](Cc2ccccc2)N2C[C@H](Cc3ccc(O)cc3)N(CCc3ccccc3)C2=S)cc1 was read as DT40 TDP1 no CPT 4.1µM* and TDP1 cell CPT 7.3µM*.
For Oc1ccc(C[C@H]2CN([C@@H](Cc3ccc(O)cc3)CN3CCC[C@@H]3CN3C(=S)NC[C@@H]3Cc3ccccc3)C(=S)N2CCc2ccccc2)cc1 the results were DT40 TDP1 no CPT 10µM* and TDP1 cell CPT 9.2µM*.
`O=C1NC[C@H](Cc2ccccc2)N(C[C@H]2CCCN2C[C@H](Cc2ccccc2)N2C[C@H](Cc3ccc(O)cc3)N(CCc3ccccc3)C(=O)C2=O)C1=O` gave DT40 TDP1 no CPT inconclusive, TDP1 cell CPT inconclusive and uPA generation -4%.
`Oc1ccc(C[C@H]2CN([C@@H](Cc3ccccc3)CN3CCCC3CN3C(=S)NC[C@@H]3Cc3ccccc3)C(=S)N2CCc2ccccc2)cc1` (some centres not stated) gave DT40 TDP1 no CPT 16µM* and TDP1 cell CPT 21µM*.
For CC(C)C[C@@H](CN1CCC[C@H]1CN1C(=O)C(=O)NC[C@@H]1Cc1ccc(O)cc1)N1C[C@H](Cc2ccccc2)N(CCc2ccccc2)C(=O)C1=O the results were DT40 TDP1 no CPT -3% and TDP1 cell CPT inconclusive.
`O=S(=O)(Nc1ccc(F)cc1)c1cccc2nsnc12` gave DT40 TDP1 no CPT -4%, TDP1 cell CPT -11%, uPA generation -5%, TDP1 inh 5% and miR-21 reporter -1%.
`O=C(/C=C/c1ccccc1)N(Cc1cccs1)C1CCS(=O)(=O)C1` (configuration not stated) gave DT40 TDP1 no CPT -30%, TDP1 cell CPT 0%, uPA generation 2% and miR-21 reporter -1%.
O=C(Nc1cc(C(F)(F)F)ccc1Cl)[C@H](O)CCc1ccccc1 was read as TDP1 inh -7%.
NC(Cc1ccc(C(F)(F)F)cc1)c1csc(NC(=O)Nc2ccccc2Cl)n1 (configuration not stated) was read as DT40 TDP1 no CPT 21µM* and TDP1 cell CPT inconclusive.

Two successive compounds out of the list so far, quoted:
For Oc1ccc(C[C@H]2CN([C@@H](Cc3ccc(O)cc3)CN3CCC[C@@H]3CN3C(=S)NC[C@@H]3Cc3ccccc3)C(=S)N2CCc2ccccc2)cc1 the results were DT40 TDP1 no CPT 10µM* and TDP1 cell CPT 9.2µM*.
`O=C1NC[C@H](Cc2ccccc2)N(C[C@H]2CCCN2C[C@H](Cc2ccccc2)N2C[C@H](Cc3ccc(O)cc3)N(CCc3ccccc3)C(=O)C2=O)C1=O` gave DT40 TDP1 no CPT inconclusive, TDP1 cell CPT inconclusive and uPA generation -4%.

Carrying on.
For NC(Cc1ccc(Cl)cc1)c1csc(NC(=O)Nc2ccccc2)n1 (configuration not stated) the results were DT40 TDP1 no CPT 15µM* and TDP1 cell CPT 13µM*.
`O=C(Nc1ccc(Cl)cc1)Nc1nc(-c2ccccc2)cs1` gave DT40 TDP1 no CPT -19%, TDP1 cell CPT inconclusive, uPA generation -6%, TDP1 inh -1% and miR-21 reporter 2%.
NC(Cc1ccc(C(F)(F)F)cc1)c1csc(NC(=O)Nc2ccccc2)n1 (configuration not stated) was read as DT40 TDP1 no CPT inconclusive and TDP1 cell CPT 13µM*.
`NC(CO)c1csc(NC(=O)Nc2cccc(Cl)c2)n1` (configuration not stated) gave DT40 TDP1 no CPT -14% and TDP1 cell CPT -7%.
NC(COCc1ccccc1)c1csc(NC(=O)Nc2cccc(Cl)c2)n1 (configuration not stated) was read as DT40 TDP1 no CPT inconclusive and TDP1 cell CPT 23µM*.
`O=S1(=O)CCN2C(c3ccc4c(c3)CCCC4)=CSC2=N1` gave DT40 TDP1 no CPT -23%, TDP1 cell CPT -7%, uPA generation 1%, TDP1 inh -5% and miR-21 reporter 1%.
For O=C(COC(=O)c1c(Cl)cccc1Cl)NCc1cccs1 the results were DT40 TDP1 no CPT -3%, TDP1 cell CPT -8%, uPA generation -2% and TDP1 inh -5%.
